Results as given in article PMC6149825, “PTP1B Inhibitors from the Entomogenous Fungi Isaria fumosorosea” (Molecules : A Journal of Synthetic Chemistry and Natural …, 2017).

Molecular target: T1, PTP1B (Homo sapiens, UniProt P18031)
T1 sequence (P18031 1-435): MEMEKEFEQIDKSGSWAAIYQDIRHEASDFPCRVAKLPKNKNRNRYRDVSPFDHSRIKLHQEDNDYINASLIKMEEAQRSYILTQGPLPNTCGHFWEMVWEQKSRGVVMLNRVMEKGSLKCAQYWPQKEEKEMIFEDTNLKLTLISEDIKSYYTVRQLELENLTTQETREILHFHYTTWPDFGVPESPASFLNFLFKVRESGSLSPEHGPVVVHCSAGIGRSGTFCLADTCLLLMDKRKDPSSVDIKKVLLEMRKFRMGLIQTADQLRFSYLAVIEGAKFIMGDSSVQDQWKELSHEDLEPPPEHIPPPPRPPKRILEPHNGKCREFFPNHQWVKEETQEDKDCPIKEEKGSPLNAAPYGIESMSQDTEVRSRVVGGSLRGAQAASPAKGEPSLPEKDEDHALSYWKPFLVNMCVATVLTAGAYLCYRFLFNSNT
Assay: PTP1B inhibition assay (hydrolysis of p-nitrophenyl phosphate, 96-well plate)
Settings: read-out: PTP1B inhibitory activity IC50; in vitro; pNPP substrate; triplicate, three independent experiments

**Q.** How did the IC50 turn out when Beauvericin [Compound 6] was run?
**A.** 590 ± 150 nM
